Reference: patent US10557853B2 (priority 2012, dated 2020)

Each compound was assayed on serum proteins (lysozyme, PDGF-BB, FGF-21, fibrinogen, transferrin, HSA). Settings: 1-2 μM serum proteins.

Row | Structure (SMILES) | fluorescence response to a large excess of other proteins
1 | C=C(CC)C(=O)c1ccc(OCC(=O)NCCCn2cc(CNC(=O)OCCCN3C=C/C(=C\c4sc5ccccc5[n+]4CCCOC(=O)NCc4cn(CCCNC(=O)COc5ccc(C(=O)C(=C)CC)c(Cl)c5Cl)nn4)c4ccccc43)nn2)c(Cl)c1Cl [sensor 14] | do not respond
2 | O=C(CCCCC1SCC2NC(=O)NC21)NCCOCCOCCNC(=O)CCN1C=C/C(=C\c2sc3ccccc3[n+]2CCC(=O)NCCOCCOCCNC(=O)CCCCC2SCC3NC(=O)NC32)c2ccccc21.[I-] (stereo not shown) [sensor 34] | do not respond
3 | C=C(CC)C(=O)c1ccc(OCC(=O)NCCNC(=O)CCN2C=C/C(=C\c3sc4ccccc4[n+]3CCC(=O)NCCNC(=O)COc3ccc(C(=O)C(=C)CC)c(Cl)c3Cl)c3ccccc32)c(Cl)c1Cl [sensor 140, (E)-3-(3-((2-(2-(2,3-dichloro-4-(2-methylenebutanoyl)phenoxy)acetamido)ethyl)amino)-3-oxopropyl)-2-((1-(3-((2-(2-(2,3-dichloro-4-(2-methylenebutanoyl)phenoxy)acetamido)ethyl)amino)-3-oxopropyl)quinolin-4(1H)-ylidene)methyl)benzoidithiazol-3-ium iodide] | do not respond
4 | O=C(CCN1C=C/C(=C\c2sc3ccccc3[n+]2CCC(=O)NCCCCCCNc2c3c(nc4ccccc24)CCCC3)c2ccccc21)NCCCCCCNc1c2c(nc3ccccc13)CCCC2.[I-] [sensor 36] | do not respond
